Columns and labels:
[1] = system: ventricular arrhythmias induced by chloroform; assay: Antiarrhythmic activity: prevention of chloroform-induced ventricular flutter and fibrillation in mice; conditions: ratio of LD50 and ED50
Method: At the time when they ceased to breathe, electrocardiogram of each animal was recorded to observe the flutter and fibrillation of the ventricle.
The abnormalities of ventriculus as observed in these animals can be prevented by previous administration of a substance showing antiarrhythmic activity. A compound of this invention, at various dosages, was subcutaneously injected to mice grouped by 29-40 heads. Thirty minutes later these mice were treated with chloroform to induce arrhythmias. Prophylaxis percentages of the flutter and fibrillation of ventricle for each dosage were calculated.

ddY strain male mice = assay type: in vivo; conditions: 18-22 g, up and down method

## Cc1cccc(C)c1NC(=O)CC12CCCN1CCC2 [Compound 12, N-(2,6-dimethylphenyl)-8-pyrrolizidineacetaminde]
[1]
  Therapeutic index: 17.08
ddY strain male mice
  LD50: 410 mg/kg

Reference: US4564624A, “8-(Substituted N-phenylcarboxamidomethyl) pyrrolizidines and use thereof as antiarrhythmics” (Suntory Ltd., priority 1982, dated 1986)
